{"sequences": {"note": "Sequences of proteins named here, by UniProt entry; tags and fusion partners are left off.", "UniProt P05177, whole entry": "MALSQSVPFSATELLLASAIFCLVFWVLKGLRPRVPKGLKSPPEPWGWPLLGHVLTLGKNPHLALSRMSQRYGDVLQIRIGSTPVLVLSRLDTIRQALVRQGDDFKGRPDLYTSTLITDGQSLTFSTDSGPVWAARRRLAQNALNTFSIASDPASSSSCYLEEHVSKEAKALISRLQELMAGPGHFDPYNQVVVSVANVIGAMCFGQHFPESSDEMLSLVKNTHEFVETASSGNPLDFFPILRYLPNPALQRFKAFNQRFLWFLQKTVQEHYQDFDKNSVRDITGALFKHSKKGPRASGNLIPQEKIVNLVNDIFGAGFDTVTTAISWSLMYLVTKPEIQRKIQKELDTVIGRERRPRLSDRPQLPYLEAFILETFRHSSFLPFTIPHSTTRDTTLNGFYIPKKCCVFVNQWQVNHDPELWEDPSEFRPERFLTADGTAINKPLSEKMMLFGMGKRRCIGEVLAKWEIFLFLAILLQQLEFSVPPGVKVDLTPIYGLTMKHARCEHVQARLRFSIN"}, "source": "paper PMC8470483", "about": "“Bidirectional Influences of Cranberry on the Pharmacokinetics and Pharmacodynamics of Warfarin with Mechanism Elucidation” (Nutrients, 2021)", "molecular_target": "T1, CYP1A2 (Homo sapiens, UniProt P05177)", "T1 construct": "purchased", "assay": "Vivid CYP450 screening kit, CYP1A2 activity", "format": "biochemical", "conditions": "positive control, 3 μM, in blank serum", "data": [{"molecule": "O=c1cc(-c2ccccc2)oc2c1ccc1ccccc12", "note": "[ANF, α-naphthoflavone]", "values": [{"measurement": "Decrease of CYP1A2 activity", "result": 31, "unit": "%"}]}]}
